Assay results as given in ChEMBL document CHEMBL4828734, “Discovery of High-Affinity Inhibitors of the BPTF Bromodomain” (J Med Chem, 2021).

Target: Nucleosome-remodeling factor subunit BPTF (Homo sapiens, UniProt Q12830)
Assay: biochemical

- Kd: 6 µM
Structure (SMILES): Cn1ncc(N[C@@H]2CCNC2)c(Cl)c1=O
